{"sequences": {"note": "Protein sequences, listed by entry. Tags and fused reporters are not part of them.", "UniProt Q96LD8, whole entry": "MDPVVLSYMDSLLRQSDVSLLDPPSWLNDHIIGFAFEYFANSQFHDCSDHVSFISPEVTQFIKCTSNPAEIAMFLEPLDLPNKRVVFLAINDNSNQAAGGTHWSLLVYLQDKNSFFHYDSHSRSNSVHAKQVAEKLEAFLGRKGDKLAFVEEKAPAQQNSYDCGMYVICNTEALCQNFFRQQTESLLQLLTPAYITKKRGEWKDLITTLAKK"}, "source": "PubChem BioAssay AID602440", "about": "(Sanford-Burnham Center for Chemical Genomics, 2012)", "note": "This is a selection; strong and weak results do not stand in their true shares. Activity calls are given as the source filed them. Cut-off read from the data, not from the text of the source: active = inhibition mostly above about 40% (no sharp cut-off); inactive = mostly below about 27%."}
{"target": "Sentrin-specific protease 8 (Homo sapiens) (UniProt Q96LD8)", "assay": "blockers of SENP8 deneddylase activity – biochemical, fluorescence, Nedd8 protein substrate, uHTS, primary screen (AID 602440)", "conditions": "recombinant SENP8, Nedd8 substrate fluorescence; at 20 µM; active compounds read high"}
{"smiles": "COc1ccccc1OP(C)(=O)Nc1cccc(Br)c1", "note": "(stereo unspecified)", "inhibition": "inactive: 18.1%"}
